Results published in PubChem BioAssay AID1671194 (National Center for Advancing Translational Sciences (NCATS), 2021).
This is a selection; strong and weak results do not stand in their true shares. Results filed as inconclusive are left out. Active and inactive are the calls of the source. Calls follow the shape of the dose curve; as a rule, active = well fitted inhibition curve with a large enough effect; inconclusive = small, poorly fitted or top-dose-only effect; inactive = no such curve, though single readings can be large or run the other way.

Test: Primary qHTS assay for inhibitors of alpha-synuclein gene (SNCA) expression; also: nearly all actives have a fitted effect of over 45% in size
Conditions: HEK-293 SNCA-luciferase knock-in, luminescence, 24 h; at 25.6 µM (top of the series) unless noted
From the text: Assay Submitter (PI): Daniel R. Scoles Ph.D.
Department of Neurology, University of Utah, Salt Lake City, Utah
Accumulation of alpha-synuclein is a main underlying pathological feature of Parkinson's disease (PD) and alpha-synucleinopathies, for which lowering expression of the alpha-synuclein gene (SNCA) is a potential therapeutic avenue. Using a cell-based luciferase reporter of SNCA expression we performed a quantitative high throughput screen (qHTS) of 155,885 compounds in dose response. The screening assay was generated using genome editing to insert the luciferase gene downstream and in frame of the SNCA gene in HEK-293 cells (1). A viability counterscreen using GF-AFC was used to eliminate cytotoxic and false positive compounds. After in silico analysis (clustering, removal of frequent hitter nuisance chemotypes), inhibitor compounds from the primary screen were selected for follow up and re-tested at 11-doses in the SNCA-luc cells (luciferase and GF-AFC confirmation), and in CMV-luc expressing cell line to flag general transcriptional repressors.
Described herein are the results of the primary screen for SNCA inhibitors; decrease in luciferase signal (inhibition of the SNCA gene expression) is the desired output for this assay.
1. Dansithong, W., Paul, S., Scoles, D. R., Pulst, S. M., and Huynh, D. P. (2015) Generation of SNCA Cell Models Using Zinc Finger Nuclease (ZFN) Technology for Efficient High-Throughput Drug Screening. PLoS ONE 10, e0136930.
SEQUENCE No. (e.g., 1, 2, 3, etc.); […] (e.g., Cells, Incubation, Reagent, etc.); VALUE; DESCRIPTION
1; Cells; 4 uL; Dispense 1500 HEK-293-SNCA-luc cells/well into Greiner 1536-well white / solid bottom tissue culture treated plate. The plate was covered with metal lids with gas-exchange holes.
2; Incubate; 24 hours; Incubate at 37C, 5% CO2, 95% RH.
3; Compounds; 23 nL; Compounds and controls were transferred via a Kalypsys Pin Tool (Wako USA) equipped with a 1536-slotted pin array. The plate was covered with metal lids with gas-exchange holes.
4; Incubate; 24 hours; Incubate at 37C, 5% CO2, 95% RH.
5; Dispense; 1 uL; Dispense Gly-Phe-7-amino-4-trifluoromethylcoumarin (GF-AFC, prepared at 125 uM in PBS) was added. The plate was covered with metal lids with gas-exchange holes.
6; Incubate; 30 min; Incubate at 37C, 5% CO2.
7; Detector; Fluorescence; Measure fluorescence with ViewLux microplate reader (PerkinElmer) equipped with 405/10 excitation and 540/25 emission filters.
8; Dispense; 3 uL; Dispense ONE-Glo ([…]) lucifase detection reagent was added to each well. Plates were covered with metal lids with gas-exchange holes.
9; Incubate; 15 min; Incubate at room temperature.
10; Detector; Luminescence; Measure luminescence with ViewLux microplate reader (PerkinElmer) equipped with clear filters.
NOTES (numbers refer to sequence above)
1; HEK-293-SNCA-luc were cultured and suspended in phenol-red free DMEM (4.5 g/L glucose, 25 mM HEPES, cat #21063 (Thermo)).
3; Compounds were added to the assay plate in an 11-point intra plate dose response, 1:3 titration in DMSO with a final concentration range of […]. Vehicle-only plates, with DMSO being pin-transferred to every well, were inserted at the beginning of screening runs to confirm expected assay performance. Activity was normalized to wells containing medium only (-100% activity, full inhibition) and SNCA-luc cells treated with DMSO vehicle control (0% activity), contained on the same plate as test samples.
10; Signals were analyzed, and dose-response curves were fit using the Hill equation. Compounds in curve classes -1.1, -1.2, -2.1, -2.2 in the SNCA-luc assay were considered active. Compounds were eliminated from further consideration if also active (curve class -1.1, -1.2, -1.3, -1.4, -2.1, -2.2, -2.3, -2.4) in the GF-AFC cytotoxicity assay.
With Cc1cccc([N+](=O)[O-])c1[N+](=O)[O-] the activity change, negative = inhibition was inactive: 15.8%. For CCOP(=O)(CC)Oc1ccc([N+](=O)[O-])cc1 (stereo unspecified), the activity change, negative = inhibition was inactive: -23.8%. In the case of C/C1=C2N=C(/C=C3N=C(/C(C)=C4\[N-][C@@](C)([C@@H]5N=C1[C@](C)(CCC(=O)NC[C@@H](C)OP(=O)([O-])O[C@H]1[C@@H](O)[C@@H](n6cnc7cc(C)c(C)cc76)O[C@@H]1CO)[C@H]5CC(N)=O)[C@@](C)(CC(N)=O)[C@@H]4CCC(N)=O)[C@@](C)(CC(N)=O)[C@@H]\3CCC(N)=O)C(C)(C)[C@@H]/2CCC(N)=O.[C-]#N.[Co+3], the activity change, negative = inhibition is reported as inactive: -33.4%. For OCCSCCO, the activity change, negative = inhibition was inactive: -41.3%. In the case of CC1=C2[N-][C@@](C)([C@@H]3N=C(C(C)=C4N=C(C=C5N=C1[C@@](C)(CC(N)=O)[C@H]5CCC(N)=O)C(C)(C)[C@H]4CCC(N)=O)[C@](C)(CCC(=O)NC[C@@H](C)OP(=O)([O-])O[C@H]1[C@@H](O)[C@@H](n4cnc5cc(C)c(C)cc54)O[C@H]1CO)[C@H]3CC(N)=O)[C@@](C)(CC(N)=O)[C@@H]2CCC(N)=O.[C-]#N.[Co+3], the activity change, negative = inhibition is reported as inactive: -27.6%. For O=[N+]([O-])c1cccc([N+](=O)[O-])c1, the activity change, negative = inhibition was inactive: -25.6% [at 57.2 µM].
